Apparent affinities of Ab-14 variants for a coronavirus HR2 peptide

Data: MIT Lincoln Laboratory AlphaSeq set, Engelhart et al. 2022, doi:10.1038/s41597-022-01779-4, as distributed in FLAb.

Target peptide (SARS-CoV-2 spike, HR2 region): PDVDLGDISGINAS

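The starting antibody came from a phage panning campaign against this peptide. AAYL50 was designed without a model: most single CDR substitutions and a random sample of double and triple ones. The assay is AlphaSeq: two haploid yeast populations carry antibody and antigen on their surface. Binding brings cells together so that they mate, and sequencing counts the barcode pairs among the diploids. Each replicate has its own calibration line, from reference interactions of the BCL2 family. Each pool was mated in three replicate cultures.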

Parent: Ab-14, a human scFv built as VH, a 15-residue (Gly4Ser)3 linker, VL. Only the CDRs of the light chain vary.
VH: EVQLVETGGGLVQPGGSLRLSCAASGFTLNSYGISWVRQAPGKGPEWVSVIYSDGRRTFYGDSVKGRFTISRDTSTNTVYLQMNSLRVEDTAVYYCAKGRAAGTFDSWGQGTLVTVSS
VL: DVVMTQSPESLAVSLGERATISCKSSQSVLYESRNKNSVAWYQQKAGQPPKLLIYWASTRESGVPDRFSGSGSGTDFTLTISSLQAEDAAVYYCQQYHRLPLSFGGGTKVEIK

Changes read parent residue, position, new residue, counted from the first residue of the VL shown.
Values are log10 of the apparent Kd in nM; lower means stronger binding.
The mean shown is taken over the replicates in which the pair was detected.
"n.d." means that the variant was in the library but no mating with the target was seen in that replicate; the authors take this as a sign of poor binding, and no number exists.
Nonspecific signal, from three strains lacking the peptide, appeared in 18% of pairings of library AAYL50, centred on 4.19 (5% of these signals below 2.99); values are not corrected for it. For each scFv, signals with the empty controls are counted beside the result, with their mean in brackets.

| changes | log10 Kd, replicates | log10 Kd (nM), mean | control signals |
|---|---|---|---|
| S28V/T59Q/S103H | 2.82 2.10 2.82 | 2.58 | 1/9 (3.08) |
| Q27T/S62H/P101T | 0.82 1.17 0.88 | 0.96 | 0/9 |
| S26V/E61R/S62K | n.d. n.d. n.d. | n.d. | 3/9 (3.84) |
| V29A/A57Y/H98E | 4.31 5.21 n.d. | 4.76 | 1/9 (2.71) |
| S28I/K36F | 3.24 3.21 3.84 | 3.43 | 3/9 (3.37) |
| E61N/Y97F/L100C | 0.82 0.92 0.98 | 0.91 | 4/9 (4.47) |
| Q27V/S33I/R99S | 2.46 1.21 1.51 | 1.73 | 1/9 (3.23) |
| K24T/A40G/W56M | n.d. n.d. n.d. | n.d. | 2/9 (4.05) |
| S26F/N35C/R99L | n.d. n.d. 3.46 | 3.46 | 0/9 |
| R60F/S62I/Y97I | n.d. n.d. n.d. | n.d. | 1/9 (4.06) |
| K36T | 0.44 0.69 0.57 | 0.57 | 4/9 (4.87) |
| E32G/T59G/S62A | 1.83 1.66 2.05 | 1.84 | 2/9 (4.29) |
| E32M/A57N/Y97N | n.d. n.d. n.d. | n.d. | 0/9 |
| K36P/S38C/Y97A | 3.08 1.82 2.66 | 2.52 | 2/9 (4.21) |
| K24V/S38W/A40F | 4.76 4.13 6.49 | 5.13 | 4/9 (4.30) |
| S26R/Y31H/Q95L | 1.63 1.74 1.91 | 1.76 | 2/9 (3.69) |
| E61G/Q95D | 1.54 1.33 1.73 | 1.53 | 1/9 (3.29) |
| Q27T/L100M/P101G | n.d. n.d. n.d. | n.d. | 0/9 |
| E61M/H98P/L102W | 2.47 2.41 2.23 | 2.37 | 3/9 (4.63) |
| Y31A/Q96Y/R99Q | n.d. n.d. n.d. | n.d. | 0/9 |
| L30D/E32M/T59P | n.d. n.d. n.d. | n.d. | 0/9 |
| R60A/E61W/R99D | 4.08 3.14 n.d. | 3.61 | 2/9 (3.21) |
| L30G/E32T/N35Q | 1.54 1.55 1.64 | 1.57 | 5/9 (4.41) |
| L30Y/Q96R/L102Y | 2.89 2.36 3.26 | 2.84 | 0/9 |
| R34S/N35D/T59V | 0.29 0.48 0.24 | 0.34 | 1/9 (4.84) |
| L30N/R34T/P101F | 0.61 0.91 0.86 | 0.79 | 2/9 (4.49) |
| Y31W/Y97A/S103M | 2.57 2.23 3.12 | 2.64 | 4/9 (3.43) |
| E32A/N35H/V39Y | 4.11 4.30 4.57 | 4.33 | 9/9 (4.33) |
| V39L/Q96V/S103V | n.d. n.d. n.d. | n.d. | 0/9 |
| S25K/L30I/A57N | n.d. n.d. n.d. | n.d. | 1/9 (3.25) |
| E32Y/R34V/P101G | 2.03 1.65 2.22 | 1.97 | 2/9 (4.10) |
| S33N/E61C/Q96M | 3.06 2.66 3.57 | 3.10 | 2/9 (3.98) |
| K24T/S33V/P101H | 3.31 3.40 3.12 | 3.28 | 1/9 (4.76) |
| S26W/T59C/P101A | n.d. n.d. n.d. | n.d. | 0/9 |
| S25I/S26G/Q95I | 1.02 1.13 1.28 | 1.14 | 5/9 (4.09) |
| W56T | 0.69 1.07 1.06 | 0.94 | 1/9 (2.93) |
| V29W/L30Q | n.d. n.d. 3.73 | 3.73 | 0/9 |
| K24L/W56N/Q96L | 0.60 0.78 0.70 | 0.69 | 1/9 (3.76) |
| L30F/Y31G/S38P | 1.01 1.12 1.00 | 1.04 | 1/9 (4.72) |
| E32I/R34L/N35Q | n.d. n.d. n.d. | n.d. | 0/9 |
| S33H/N37K/W56H | 0.29 0.80 0.80 | 0.63 | 0/9 |
| Q27S/K36G/H98G | 0.86 0.95 1.16 | 0.99 | 2/9 (3.28) |
| S28Q/Y31I/H98I | 1.90 2.10 n.d. | 2.00 | 0/9 |
| R34F/K36S/S103L | 2.65 2.00 2.27 | 2.31 | 2/9 (3.35) |
| S26E/R34T/A40S | 2.27 3.07 3.37 | 2.90 | 1/9 (4.34) |
| V39C/Q96N/L100I | n.d. n.d. 5.31 | 5.31 | 8/9 (4.80) |
| L30Q/Q95A | 1.33 1.53 1.46 | 1.44 | 2/9 (4.80) |
| S26K/Q95E/L102W | 1.22 n.d. 2.22 | 1.72 | 0/9 |
| Q27I/N35I/L102Q | n.d. n.d. n.d. | n.d. | 0/9 |

Excerpt, the first 5 entries:

{"changes": "S28V/T59Q/S103H", "log10 Kd, replicates": "2.82 2.10 2.82", "log10 Kd (nM), mean": "2.58", "control signals": "1/9 (3.08)"}
{"changes": "Q27T/S62H/P101T", "log10 Kd, replicates": "0.82 1.17 0.88", "log10 Kd (nM), mean": "0.96", "control signals": "0/9"}
{"changes": "S26V/E61R/S62K", "log10 Kd, replicates": "n.d. n.d. n.d.", "log10 Kd (nM), mean": "n.d.", "control signals": "3/9 (3.84)"}
{"changes": "V29A/A57Y/H98E", "log10 Kd, replicates": "4.31 5.21 n.d.", "log10 Kd (nM), mean": "4.76", "control signals": "1/9 (2.71)"}
{"changes": "S28I/K36F", "log10 Kd, replicates": "3.24 3.21 3.84", "log10 Kd (nM), mean": "3.43", "control signals": "3/9 (3.37)"}

For reference, the parent read 0.65 as the reference entry and 1.68 as a member of this library.